This is a sample that favours compounds with a hit; in the whole collection about 16% have one here.
TDP1 block = blocks human tyrosyl-DNA phosphodiesterase 1. 350,000 tested, 0.28% active. recombinant TDP1, AlphaScreen DNA substrate cleavage. Q9NUW8. Potency, µM (doses to about 130 µM), for inactives: at the highest dose activity change, negative = inhibition, usual class: inhibitors. AID 485290; note: potency is the fitted concentration of half-maximal effect; % is set by controls: 0 for no effect and ±100 for the full control effect; nearly all actives have a fitted effect of over 40% in size
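Steps: enzyme plus compound, 15 min RT; add biotin/phosphotyrosine-FITC oligonucleotide (15 nM final), react 5 min; add donor/acceptor beads (10 ug/ml final), 10 min; read AlphaScreen. Tdp1 at 1 nM final.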
DT40 TDP1 CPT = growth inhibition of DT40 Tdp1-/-;hTDP1 cells with camptothecin (screen for TDP1 inhibitors) | Potency, µM (highest dose often 46.2 µM), without a hit: at the highest dose activity change, negative = growth inhibition, most hits filed as inhibitors | AID 686979 | 420,000 tested, 12% active | chicken DT40 Tdp1-/-;hTDP1 cells + 20 nM CPT, ATP luminescence, 48 h; note: potency is the fitted concentration of half-maximal effect; % is set by controls: 0 for no effect and ±100 for the full control effect; nearly all actives have a fitted effect of over 55% in size
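Cell growth measured by CellTiter-Glo luminescence after a minimum 48 h, 37 C compound exposure with 20 nM CPT in Tdp1-knockout DT40 cells stably expressing hTDP1, seeded 400/well; qHTS titration format.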
miR-21 reporter = miR-21 reporter, rising signal | Potency, µM (highest dose often 38.3 µM), for inactives: at the highest dose reporter change, positive = more light | 340,000 tested, under 10 active | HeLa miR-21 FLuc reporter, luciferase, 48 h; active = well fitted rising curve with a large enough effect; inconclusive = small, poorly fitted or top-dose-only effect; inactive = no such curve, though single readings can be large or run the other way;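 note: % of control where 0% means no effect; miR-21 action dims this reporter so a rising signal means less miR-21 action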
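Using DMEM plus 10% FBS, HeLa miR-21-FLuc cells are incubated with test compounds (final up to about 40uM) for 48 hours; firefly luciferase signal is then imaged following reagent-mediated lysis.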
TDP1 cell noCPT = qHTS for Inhibitors of human tyrosyl-DNA phosphodiesterase 1 (TDP1): qHTS in cells in absence of CPT; DT40 Tdp1-/- hTDP1 cells, no CPT, ATP luminescence, 48 h; Potency, µM (doses to about 46.2 µM), without a hit: at the highest dose activity change, negative = growth inhibition, most hits filed as inhibitors; 420,000 tested, 15% active; AID 686978, 2013; note: potency is the fitted concentration of half-maximal effect; % is set by controls: 0 for no effect and ±100 for the full control effect; nearly all actives have a fitted effect of over 55% in size
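Chicken DT40 Tdp1-/- cells stably complemented with human TDP1 were seeded at 400 cells/well with DMSO in place of 20 nM camptothecin. After compound pinning, cells grew at least 48 hr at 37 °C; viability read by CellTiter-Glo luminescence.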
uPA generation = blocks generation of uPA at the cell surface | cell surface uPA generation assay, qHTS | AID 540303 | Potency, µM (highest dose often 38.3 µM), without a hit: at the top dose activity change, negative = inhibition, most hits filed as inhibitors | 330,000 tested, 0.31% active; active = well fitted inhibition curve with a large enough effect; inconclusive = small, poorly fitted or top-dose-only effect; inactive = no such curve, though single readings can be large or run the other way; tested in mouse RAW 264.7 cells; note: potency is the fitted concentration of half-maximal effect; % is set by controls: 0 for no effect and ±100 for the full control effect; nearly all actives have a fitted effect of over 55% in size
* hit, by the source's call; ? = inconclusive; · = no result; [ ] = dose if it differs, or a comment. Unless noted, calls come from the whole dose curve; as a rule, active = well fitted curve in the direction sought with a large enough effect; inconclusive = small, poorly fitted or top-dose-only effect, or another doubt; inactive = no such curve, though single readings can be large; an effect the other way counts as inactive or inconclusive.

(1) Nc1nc(=O)n(C2OC(CO)C(O)C2O)cc1Cl (configuration not stated)
(2) Cc1ccc([N+](=O)[O-])cc1NC(=O)/C=C/C(=O)O
(3) Cc1ccc(Cn2nnc3c(=O)[nH]c(C4CCCN(C(=O)Nc5ccc(F)cc5)C4)nc32)cc1 (configuration not stated)
(4) COc1ccc(Cn2nnc3c(=O)[nH]c(C4CCCN(C(=O)c5ccc(C)cc5)C4)nc32)cc1 (configuration not stated)
(5) Cc1ccccc1Cn1nnc2c(=O)[nH]c(C3CCCN(C(=O)c4ccc(C(C)(C)C)cc4)C3)nc21 (configuration not stated)
(6) Cc1cccc(Cn2nnc3c(=O)[nH]c(C4CCCN(C(=O)c5ccc(C(C)(C)C)cc5)C4)nc32)c1 (configuration not stated)
(7) COc1ccc(Cn2nnc3c(=O)[nH]c(C4CCCN(C(=O)c5ccccc5)C4)nc32)cc1 (configuration not stated)
(8) CCOC(=O)c1sc(NC(=O)C2CC2)cc1C
Assay by compound | 1 | 2 | 3 | 4 | 5 | 6 | 7 | 8
TDP1 block | 12.1%[56.1 µM] | 4.2% | -1.0% | 2.5% | 8.6% | 7.4% | 0.0% | 2.6%
DT40 TDP1 CPT | ? | 1.4% | ? | ? | ? | ? | -28.8% | ?
miR-21 reporter | · | -0.8% | -12.6% | -27.3% | 15.4% | 25.9% | -11.4% | -53.2%
TDP1 cell noCPT | 5.17µM* | 13.2% | 18.4µM* | ? | 25.9µM* | 20.6µM* | -23.0% | ?
uPA generation | · | -3.0% | · | · | · | · | 6.7% | -9.6%

(9) CCOC(=O)c1sc(NC(=O)c2cccc(S(=O)(=O)N(CC)CC)c2)cc1C
(10) CCOC(=O)c1sc(NC(=O)Nc2ccc(Cl)cc2)cc1C
(11) CCOC(=O)c1sc(NC(=O)c2cccc(S(=O)(=O)N3CCN(C)CC3)c2)cc1C
(12) CCOC(=O)c1sc(NC(=S)NC(=O)C2CCCC2)cc1C
(13) CCOC(=O)c1sc(NC(=O)c2ccc(Cl)s2)cc1C
(14) CCOC(=O)c1sc(NC(=O)c2c(C)nn(Cc3ccccc3)c2C)cc1C
(15) Cc1cccc(NC(=O)c2ccc(CN3CCc4ccccc4C3)cc2)c1C
(16) CC(=O)Nc1ccc(NC(=O)c2c(C)nn(Cc3ccccc3)c2Cl)cc1
Assay by compound | 9 | 10 | 11 | 12 | 13 | 14 | 15 | 16
TDP1 block | 5.6% | 0.0% | 8.1% | 5.5% | 3.1% | 6.2% | -10.3% | -0.1%
DT40 TDP1 CPT | 2.59µM* | 5.8µM* | -27.8% | ? | -16.4% | 16.4µM* | ? | 13µM*
miR-21 reporter | -27.3% | 17.9% | -5.1% | -13.9% | -54.7% | 5.3% | -3.9% | -4.4%
TDP1 cell noCPT | 4.61µM* | 3.66µM* | ? | 16.4µM* | 0.6% | ? | ? | 1.16µM*
uPA generation | · | -14.8% | -11.2% | -7.9% | -7.8% | -0.1% | 0.4% | 2.8%

(17) CCOC(=O)c1sc(NC(=O)C(C)(C)C)cc1C
(18) CCOC(=O)c1c(NC(=O)Nc2ccc(Cl)cc2)sc(C)c1C
(19) CCOC(=O)c1sc(NC(=O)c2ccccc2)cc1C
(20) CCOC(=O)c1c(NC(=O)/C=C/C(=O)O)sc(C)c1-c1ccc(Cl)cc1
(21) O=C(COC(=O)c1cccc(Cl)c1Cl)NCc1cccs1
(22) Cc1ccc(OCC(=O)NCCNC(=O)c2ccco2)cc1
(23) Cc1cc(C)n(C(=O)CNC(=O)c2ccc(C(C)(C)C)cc2)n1
(24) CCOc1ccc(CCNC(=O)Cn2nc(CC)n3c(cc4sccc43)c2=O)cc1
Assay by compound | 17 | 18 | 19 | 20 | 21 | 22 | 23 | 24
TDP1 block | 6.5% | 3.1% | 0.7% | 5.5% | -2.3% | 0.0%[0.0935 µM] | 2.2% | 0.0%
DT40 TDP1 CPT | -21.3% | ? | ? | ? | -9.5% | -27.0% | 10.3% | -1.5%
miR-21 reporter | -51.7% | -1.4% | -60.1% | 12.0% | · | -0.6% | -19.9% | 0.5%
TDP1 cell noCPT | -26.6% | 13µM* | ? | 13µM* | 23.0% | -0.4% | -2.4% | -1.8%
uPA generation | 11.2µM* | 3.2% | -13.1% | 8.91µM* | 3.5% | 1.5% | -2.5% | ·

Of the compounds above, four have a tert-butyl group.
(5) Cc1ccccc1Cn1nnc2c(=O)[nH]c(C3CCCN(C(=O)c4ccc(C(C)(C)C)cc4)C3)nc21 (configuration not stated)
(6) Cc1cccc(Cn2nnc3c(=O)[nH]c(C4CCCN(C(=O)c5ccc(C(C)(C)C)cc5)C4)nc32)c1 (configuration not stated)
(17) CCOC(=O)c1sc(NC(=O)C(C)(C)C)cc1C
(23) Cc1cc(C)n(C(=O)CNC(=O)c2ccc(C(C)(C)C)cc2)n1
Assay by compound | 5 | 6 | 17 | 23
TDP1 block | 8.6% | 7.4% | 6.5% | 2.2%
DT40 TDP1 CPT | ? | ? | -21.3% | 10.3%
miR-21 reporter | 15.4% | 25.9% | -51.7% | -19.9%
TDP1 cell noCPT | 25.9µM* | 20.6µM* | -26.6% | -2.4%
uPA generation | · | · | 11.2µM* | -2.5%

More structures
(25) O=C(N/N=C/c1ccc(N2CCOCC2)o1)c1cccc(F)c1
(26) COc1ccc(S(=O)(=O)N(CCN2CCOCC2)Cc2cc(OC)ccc2OC)cc1
(27) COC(CNC(=O)c1ccc2c(=O)n(Cc3ccc4c(c3)OCO4)c(=S)[nH]c2c1)OC
(28) Cc1ccc(Cl)cc1N1CCN(C(=O)Cn2ncn3cccc3c2=O)CC1
(29) Cc1ccc(C)c(N2CCN(C(=O)CCNC(=O)Cn3ccc4ccccc4c3=O)CC2)c1
(30) Cc1ccc(Cl)cc1N1CCN(C(=O)Cn2ccc3ccccc3c2=O)CC1
(31) Cc1ccc(Cl)cc1N1CCN(C(=O)Cn2nc(C)n3c(cc4sccc43)c2=O)CC1
(32) Cc1cc(C)n(CCCNC(=O)COc2ccc([N+](=O)[O-])cc2)n1
Assay by compound | 25 | 26 | 27 | 28 | 29 | 30 | 31 | 32
TDP1 block | 4.4% | 9.1% | · | · | -1.0% | -1.0% | -1.0% | -0.1%
DT40 TDP1 CPT | -20.9% | -12.8% | ? | 20.6µM* | -16.8% | 16.4µM* | 18.4µM* | 2.3%
miR-21 reporter | -40.4% | -0.8% | 2.7% | 9.8% | -3.9% | 13.9% | -3.1% | ·
TDP1 cell noCPT | ? | 13µM* | -1.9% | ? | ? | 20.6µM* | 20.6µM* | 2.5%
uPA generation | 0.6% | -2.0% | 10.4% | -7.5% | · | -2.5% | · | 3.3%

(33) O=C(OCc1cc(=O)c(OC(=O)c2ccccc2)co1)c1ccccc1
(34) Cc1c(C(=O)NCc2ccc(C(C)C)cc2)sc(=O)n1Cc1ccc(S(=O)(=O)N(C)C)cc1
(35) Cc1cccc(C)c1Cn1c(C)c(C(=O)NCc2ccc(C#N)cc2)sc1=O
(36) CSc1ccc(Cn2c(C)c(C(=O)NCc3ccc(C(C)C)cc3)sc2=O)cc1
(37) Cc1c(C(=O)NCc2cccc(Cl)c2)sc(=O)n1Cc1ccc(C(=O)N(C)C)cc1
(38) Cc1c(C(=O)NCc2ccc(Cl)c(Cl)c2)sc(=O)n1Cc1ccc(C(=O)N(C)C)cc1
(39) Cc1c(C(=O)NCCC#N)sc(=O)n1Cc1ccc(C(=O)N(C)C)cc1
(40) O=C(Nc1cccnc1)c1cc(-c2ccc3c(c2)OCO3)on1
Assay by compound | 33 | 34 | 35 | 36 | 37 | 38 | 39 | 40
TDP1 block | · | · | · | · | · | · | · | ?
DT40 TDP1 CPT | 4.5% | 13µM* | ? | -8.2% | 16.4µM* | 14.6µM* | 3.3% | -2.7%
miR-21 reporter | · | · | · | · | · | · | · | -27.8%
TDP1 cell noCPT | -2.6% | 9.2µM* | 18.4µM* | ? | ? | 10.3µM* | -3.3% | -1.1%
uPA generation | -4.3% | · | · | · | · | · | · | ·

(41) CC(C)Cc1nnc(NC(=O)CCC(=O)NC2CCCCCC2)s1
(42) CN1CCC(=NNC(=O)CN(c2cccc(Br)c2)S(C)(=O)=O)CC1
(43) Cc1c(C(=O)N(C)Cc2ccc(F)cc2)sc(=O)n1Cc1ccc(Cl)c(Cl)c1
(44) COc1ccc(Cl)cc1Cn1c(C)c(C(=O)N(C)Cc2ccc(F)cc2)sc1=O
(45) CC1CCc2nc(NC(=O)c3ccco3)sc2C1 (configuration not stated)
(46) CC1CCc2nc(NC(=O)Cc3cccs3)sc2C1 (configuration not stated)
(47) CCC(CC)C(=O)Nc1nc2c(s1)CC(C)CC2 (configuration not stated)
Assay by compound | 41 | 42 | 43 | 44 | 45 | 46 | 47
TDP1 block | 1.9% | 0.0% | · | · | 4.7% | 9.1% | 5.7%
DT40 TDP1 CPT | -5.8% | 4.7% | ? | -17.4% | ? | -10.6% | 16.4µM*
miR-21 reporter | -2.0% | -2.8% | · | · | 25.0% | -31.9% | -4.4%
TDP1 cell noCPT | 24.2% | -7.4% | 23.1µM* | -7.7% | ? | ? | 18.4µM*
uPA generation | 4.8% | 4.5% | · | · | -16.5% | -2.1% | ·

Screens deposited in PubChem by National Center for Advancing Translational Sciences (NCATS).
